Data published in PMC8305974, “Novel Hybrid Compounds Containing Benzofuroxan and Aminothiazole Scaffolds: Synthesis and Evaluation of Their Anticancer Activity” (International Journal of Molecular Sciences, 2021).

How the values were obtained:
Assay in all cases: Cytotoxicity assay (Cytell Cell Imaging, Cell Viability Bio App)
Chang Liver = settings: read-out: Cytotoxic effects (IC50) Chang Liver; normal cell line Chang Liver; tested at 1–100 μM; mean ± SD, three repeats
HuTu 80 = settings: read-out: Cytotoxic effects (IC50) HuTu 80; cancer cell line HuTu 80; tested at 1–100 μM; mean ± SD, three repeats
M-HeLa = settings: read-out: Cytotoxic effects (IC50) M-HeLa; cancer cell line M-HeLa; tested at 1–100 μM; mean ± SD, three repeats
PANC-1 = settings: read-out: Cytotoxic effects (IC50) PANC-1; cancer cell line PANC-1; tested at 1–100 μM; mean ± SD, three repeats

O=[N+]([O-])c1cc([N+](=O)[O-])c2no[n+]([O-])c2c1Cl
IC50 (Chang Liver): > 100 µM | IC50 (HuTu 80): > 100 µM | IC50 (M-HeLa): 94.1 µM | IC50 (PANC-1): > 100 µM
